From patent publication US20230310372A1 (Amarin Pharmaceuticals Ireland Limited, priority 2013, published 2023) come the findings set out here.

The data set in a line: Safety and tolerability (treatment-emergent adverse events) in the phase 1 drug-drug interaction study. As to conditions: atorvastatin-only group, after Day 7 (so in the source).

As to `CC(C)c1c(C(=O)Nc2ccccc2)c(-c2ccccc2)c(-c2ccc(F)cc2)n1CC[C@@H](O)C[C@@H](O)CC(=O)O` [Atorvastatin, atorvastatin], the “Subjects reporting at least one treatment-emergent adverse event (TEAE)” value is given as 20%.
